Sampled rows, rich in hits. Any-hit rate of the full collection: about 2.3%.
MC4R ag barr: MC4R agonists recruiting beta-arrestin, primary screen, cell-based, luminescence, agonist arm of biased-ligand search; Melanocortin receptor 4 (Homo sapiens), P32245; U2OS MC4R beta-arrestin complementation; percent of melanotan II response, DMSO zero; activation, % at 8.9 µM; hit rate 0.98% among 360,000; AID 540308, 2011;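 active = activation above a per-plate cutoff, the mean activation of sample wells on that plate plus 3 SD, cut at about 8% in these data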
MC4R antag cAMP: MC4R antagonists of cAMP signaling, primary screen, cell-based, TR-FRET, antagonist arm of biased-ligand search; Melanocortin receptor 4 (Homo sapiens), P32245; MC4R-expressing cells, MTII-stimulated cAMP, LANCE TR-FRET; inhibition, % at 6.5 µM; hit rate 0.48% among 360,000; AID 540295, 2011;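 active = inhibition above its plate's cutoff, the mean of tested wells on that plate plus 3 SD, cut at about 29% in these data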
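Test system: U2OS cells stably expressing human melanocortin 4 receptor (MC4R); also added: Melanotan II challenge; compound: 6.5 µM single dose; timing: 30-min compound preincubation, 1-h Melanotan II challenge, 1-h detection, room temperature; signal: Eu-cAMP/anti-cAMP TR-FRET, emission 671 nm; repeats: one well per compound, no replicates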
ARFGAP1 inh: inhibitors of rat ARFGAP1 GAP activity, primary screen, biochemical, fluorescence polarization, GDP tracer; ADP-ribosylation factor GTPase-activating protein 1 (Rattus norvegicus), Q62848; Arfgap1-stimulated ARF1 GTP hydrolysis, GDP FP detection; inhibition, % at 16.5 µM; hit rate 0.26% among 360,000;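 active = inhibition above a per-plate limit, mean inhibition of low control wells plus 3 SD, cut at about 25% in these data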
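System: truncated rat Arfgap1 GAP domain / Benchmarks: high control wells lacking Arfgap1, low control full reaction with DMSO / Times: compound-enzyme preincubation 20 min, reaction 120 min, detection 60 min, 25 °C / Repeats: one replicate per compound / Also added: human ARF1(Δ1-17)-GTP substrate / Measured by: Tracer-displacement fluorescence polarization with EDTA stop, 620/688 nm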
CendR NRP1 mod: modulators of CendR peptide binding to NRP-1, primary screen, biochemical, fluorescence polarization, uHTS; Neuropilin-1 (Homo sapiens), O14786; FAM-RPARPAR peptide binding to NRP-1; inhibition, % at 25 µM; hit rate 0.85% among 360,000; AID 602438, 2012;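 active = inhibition or corrected inhibition above about 18%, plus a signal ratio from 0.5 to 1.5, limit read from the data, passing the limit was not always enough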
UUG fidelity: modulators of yeast start codon fidelity, primary screen, whole organism, S. cerevisiae, single point, plate reader; S. cerevisiae UUG-firefly luciferase reporter, luminescence/redox ratio; activity score, % at 18.7 µM; 0.13% of 350,000 active; AID 602363, 2012;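 active = replicate mean at a twofold rise or more, about +100% in these data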;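 also: firefly luciferase made from a UUG start codon reports start codon fidelity; reporter light over untreated wells divided by growth signal over untreated wells; some hits fall short of that in this replicate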
ASAP1 GAP inh: inhibitors of human ASAP1 ArfGAP activity, primary screen, biochemical, fluorescence polarization; Arf-GAP with SH3 domain, ANK repeat and PH domain-containing protein 1 (Homo sapiens), …; ASAP1-stimulated ARF1 GTP hydrolysis, GDP FP detection; inhibition, % at 16.5 µM; hit rate 0.19% among 360,000; AID 624377, 2012; in the data active = inhibition above about 25%
Each line names hits and unclear results; the compound was inactive in the other large screens.

Protein sequences, listed by entry. Tags and fused reporters are not part of them. Residues count along the entry.
Melanocortin receptor 4 (Homo sapiens), P32245, UniProt P32245, whole entry, looked up: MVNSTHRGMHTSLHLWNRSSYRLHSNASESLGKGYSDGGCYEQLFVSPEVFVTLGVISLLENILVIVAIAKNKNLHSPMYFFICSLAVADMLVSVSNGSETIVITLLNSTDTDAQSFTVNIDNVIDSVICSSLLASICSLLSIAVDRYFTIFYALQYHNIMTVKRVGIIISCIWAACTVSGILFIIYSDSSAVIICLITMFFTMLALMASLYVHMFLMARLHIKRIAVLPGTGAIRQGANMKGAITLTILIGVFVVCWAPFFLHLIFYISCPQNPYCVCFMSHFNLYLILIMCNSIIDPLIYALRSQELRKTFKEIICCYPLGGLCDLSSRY
ADP-ribosylation factor GTPase-activating protein 1 (Rattus norvegicus), Q62848, UniProt Q62848, whole entry, looked up: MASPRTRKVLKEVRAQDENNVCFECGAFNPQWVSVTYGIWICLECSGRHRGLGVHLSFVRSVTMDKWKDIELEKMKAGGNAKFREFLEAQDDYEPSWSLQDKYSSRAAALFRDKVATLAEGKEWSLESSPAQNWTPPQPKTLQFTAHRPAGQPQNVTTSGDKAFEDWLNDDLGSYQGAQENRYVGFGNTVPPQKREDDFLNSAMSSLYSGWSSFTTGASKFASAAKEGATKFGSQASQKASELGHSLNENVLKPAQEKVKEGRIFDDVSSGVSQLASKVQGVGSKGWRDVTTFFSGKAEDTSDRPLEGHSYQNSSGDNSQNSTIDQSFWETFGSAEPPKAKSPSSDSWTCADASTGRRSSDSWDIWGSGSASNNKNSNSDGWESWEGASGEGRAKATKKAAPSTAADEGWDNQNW
ADP-ribosylation factor GTPase-activating protein 1 (Rattus norvegicus), Q62848, UniProt Q62848, 1-136 limits assumed: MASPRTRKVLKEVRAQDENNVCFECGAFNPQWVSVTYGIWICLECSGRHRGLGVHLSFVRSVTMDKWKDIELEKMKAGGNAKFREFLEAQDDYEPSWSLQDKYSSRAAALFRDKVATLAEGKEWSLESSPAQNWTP
Neuropilin-1 (Homo sapiens), O14786, UniProt O14786, whole entry, looked up: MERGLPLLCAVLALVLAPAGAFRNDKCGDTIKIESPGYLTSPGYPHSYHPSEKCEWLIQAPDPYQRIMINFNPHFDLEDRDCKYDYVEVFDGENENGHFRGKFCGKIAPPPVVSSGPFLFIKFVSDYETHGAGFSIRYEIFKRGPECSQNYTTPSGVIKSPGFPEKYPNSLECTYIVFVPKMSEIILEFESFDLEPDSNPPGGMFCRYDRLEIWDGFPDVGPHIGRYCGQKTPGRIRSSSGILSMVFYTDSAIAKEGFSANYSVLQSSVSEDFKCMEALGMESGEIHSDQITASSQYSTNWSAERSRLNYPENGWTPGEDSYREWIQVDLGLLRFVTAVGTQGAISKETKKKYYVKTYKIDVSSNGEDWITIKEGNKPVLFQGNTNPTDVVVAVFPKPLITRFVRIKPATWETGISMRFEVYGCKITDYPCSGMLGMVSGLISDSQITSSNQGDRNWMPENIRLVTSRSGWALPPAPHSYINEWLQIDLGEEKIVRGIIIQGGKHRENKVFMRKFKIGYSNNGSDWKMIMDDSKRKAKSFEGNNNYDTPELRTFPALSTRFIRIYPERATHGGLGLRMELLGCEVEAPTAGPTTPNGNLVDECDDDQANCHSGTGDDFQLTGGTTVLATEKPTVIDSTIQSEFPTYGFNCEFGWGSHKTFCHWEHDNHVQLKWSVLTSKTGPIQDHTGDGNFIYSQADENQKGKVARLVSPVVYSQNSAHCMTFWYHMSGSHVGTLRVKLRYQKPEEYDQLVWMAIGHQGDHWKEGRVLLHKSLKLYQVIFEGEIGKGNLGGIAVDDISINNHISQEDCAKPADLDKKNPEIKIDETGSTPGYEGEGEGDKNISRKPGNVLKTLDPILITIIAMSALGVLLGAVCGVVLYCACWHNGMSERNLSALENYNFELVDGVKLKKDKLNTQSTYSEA

CC12CCC(O)CC1CCC1C2CCC2(C)C(C3=CC(=O)OC3)C(O)CC12O (stereo unspecified)	MC4R ag barr 12.7 (no result: UUG fidelity)
CC12CC[C@H]3[C@@H](CCC4(O)C[C@H](O)CCC34/C=N/NC(=O)Cc3ccccc3)C1(O)CCC2C1=CC(=O)OC1 (stereo partly specified)	none
C[C@H]1CC[C@@H]2[C@@H](C)[C@H]3[C@H](C[C@H]4[C@@H]5CC=C6C[C@@H](O[C@@H]7O[C@H](CO)[C@H](O)[C@H](O[C@@H]8O[C@H](CO)[C@@H](O)[C@H](O)[C@H]8O)[C@H]7O[C@@H]7O[C@@H](C)[C@H](O)[C@@H](O)[C@H]7O)CC[C@]6(C)[C@H]5CC[C@]34C)N2C1	none
C[C@]12CCC3C(CC[C@H]4C[C@@H](O)CC[C@]34C)[C@H]1C=CC2=O (stereo partly specified)	none
C[C@]12CC[C@H](O)C[C@H]1CC[C@@H]1[C@@H]2C[C@@H](O)[C@]2(C)[C@@H](C3=CC(=O)OC3)CC[C@]12O	MC4R ag barr 23.9
CC(=O)OC1CC(OC2C(O)CC(OC3C(O)CC(OC4CCC5(C)C(CCC6C5CC(O)C5(C)C(C7=CC(=O)OC7)CCC65O)C4)OC3C)OC2C)OC(C)C1OC1OC(CO)C(O)C(O)C1O (stereo unspecified)	MC4R ag barr 24.3
Cc1ccccc1-c1ccc([C@@H]2[C@H]3CN(C(=O)Cc4ccccn4)CCCCN3[C@H]2CO)cc1	none (no result: MC4R ag barr, MC4R antag cAMP, ARFGAP1 inh, CendR NRP1 mod, ASAP1 GAP inh)
COc1ccc(-c2ccc([C@H]3[C@@H](CO)N4CCCCN(C(=O)Cc5ccccc5)C[C@@H]34)cc2)cc1	none (no result: MC4R ag barr, MC4R antag cAMP, ARFGAP1 inh, CendR NRP1 mod, ASAP1 GAP inh)
CCCC#Cc1ccc([C@@H]2[C@H]3CN(C(=O)Cc4ccccn4)CCCCN3[C@H]2CO)cc1	none (no result: MC4R ag barr, MC4R antag cAMP, ARFGAP1 inh, CendR NRP1 mod, ASAP1 GAP inh)
CNC(=O)Nc1ccc(C(=O)N/N=C\C23CC[C@@H](O)CC2(O)CC[C@@H]2[C@@H]3CCC3(C)C(C4=CC(=O)OC4)CCC23O)cc1 (stereo partly specified)	none
CC12CCC(O)CC1CCC1C2CCC2(C)C(C3=CC(=O)OC3)CCC12O (stereo unspecified)	MC4R ag barr 28.1 (no result: UUG fidelity)
COC1C(O)C(C)OC(OC2CCC3(C)C(CCC4C3C(O)CC3(C)C(C5=CC(=O)OC5)CCC43O)C2)C1O (stereo unspecified)	MC4R ag barr 17.9 (no result: UUG fidelity)
COc1ccc(-c2ccc([C@@H]3[C@H](CO)N4CCCCN(C(=O)Cc5ccccc5)C[C@@H]34)cc2)cc1	none (no result: MC4R ag barr, MC4R antag cAMP, ARFGAP1 inh, CendR NRP1 mod, ASAP1 GAP inh)
COC(=O)[C@@H]1[C@@H](CO)[C@@H]2Cn3c(ccc(-c4ccccc4F)c3=O)[C@H]1N2C(=O)C1CCC1	none (no result: MC4R ag barr, MC4R antag cAMP, ARFGAP1 inh, CendR NRP1 mod, ASAP1 GAP inh)
CCC(CO)NC(=O)C1C=C2c3cccc4[nH]cc(c34)CC2N(C)C1 (stereo unspecified)	CendR NRP1 mod 49.1
CC[C@@H](CO)NC(=O)[C@@H]1C=C2c3cccc4c3c(cn4C)C[C@H]2N(C)C1	CendR NRP1 mod 40.9
COc1ccc(C#Cc2ccc([C@H]3[C@H](CO)N4CCCCN(C(=O)Cc5ccncc5)C[C@@H]34)cc2)cc1	none (no result: MC4R ag barr, MC4R antag cAMP, ARFGAP1 inh, CendR NRP1 mod, ASAP1 GAP inh)
O=C1NC(=O)C(Nc2ccc(Cl)c(Cl)c2)C(=O)N1	ASAP1 GAP inh 47.2
O=C(Cc1ccncc1)N1CCCCN2[C@H](CO)[C@H](c3ccc(C#Cc4ccccc4F)cc3)[C@H]2C1	none (no result: MC4R ag barr, MC4R antag cAMP, ARFGAP1 inh, CendR NRP1 mod, ASAP1 GAP inh)
O=C(Cc1ccccn1)N1CCCCN2[C@@H](CO)[C@H](c3ccc(C#Cc4ccccc4)cc3)[C@@H]2C1	none (no result: MC4R ag barr, MC4R antag cAMP, ARFGAP1 inh, CendR NRP1 mod, ASAP1 GAP inh)
O=C(Cc1cccnc1)N1CCCCN2[C@H](CO)[C@@H](c3ccc(/C=C/c4ccccc4)cc3)[C@H]2C1	none (no result: MC4R ag barr, MC4R antag cAMP, ARFGAP1 inh, CendR NRP1 mod, ASAP1 GAP inh)
CCN1CC=C(c2c[nH]c3ccccc23)CC1	CendR NRP1 mod 30.6
Cc1[nH]c2ccccc2c1C(=O)CN1CC=C(c2ccccc2)CC1	none
C/C=C/c1ccc([C@@H]2[C@H](CO)N3CCCCN(C(=O)Cc4cccnc4)C[C@@H]23)cc1	none (no result: MC4R ag barr, MC4R antag cAMP, ARFGAP1 inh, CendR NRP1 mod, ASAP1 GAP inh)
O=C1CC=C2C3CC4N(CCC45c4ccccc4N1C25)CC3=CCO (stereo unspecified)	none
O=C1CC=C2C3CC4N(CCC45c4cc(O)c(O)cc4N1C25)CC3=CCBr (stereo unspecified)	CendR NRP1 mod 25.8 (no result: UUG fidelity)
CN(C)c1ccc(/C=C/C=C2/C(=O)NC(=O)N(c3ccccc3)C2=O)cc1	ASAP1 GAP inh 27.6 (no result: UUG fidelity)
OC(c1cccc(Cl)c1)(c1cccc(Cl)c1)C1CN2CCC1CC2 (stereo unspecified)	CendR NRP1 mod 40.4 (no result: UUG fidelity)
O=C(Nc1cccc(C(F)(F)F)c1)OC1CN2CCC1CC2 (stereo unspecified)	none
CCOC(=O)C1=C(N)Oc2c(c(=O)oc3ccccc23)C12C(=O)N(C)c1ccccc12 (stereo unspecified)	none
C=CCN1C(=O)C2(C(C(=O)OCC)=C(N)Oc3ccccc32)c2c1c1ccccc1oc2=O (stereo unspecified)	CendR NRP1 mod 43.7
Cc1ccc(OCCn2cccc2/C=C2/C(=O)NC(=O)N(Cc3ccco3)C2=O)cc1	none (no result: UUG fidelity)
CCc1ccc(N2C(=O)NC(=O)/C(=C\c3cccn3CCOc3ccc(C(C)C)cc3)C2=O)cc1	CendR NRP1 mod 36.5
O=C(O)CC1OCC=C2CN3CCC45C6=CC(=O)C(=O)C([N+](=O)[O-])=C6NC4C1C2CC35 (stereo unspecified)	CendR NRP1 mod 25.2 (no result: ARFGAP1 inh, ASAP1 GAP inh)
Clc1ccccc1CNC1CN2CCC1CC2 (stereo unspecified)	CendR NRP1 mod 25.7 (no result: UUG fidelity)
c1ccc(CNC2CN3CCC2CC3)cc1 (stereo unspecified)	none
COC(=O)[C@H]1[C@H](CO)[C@H]2Cn3c(ccc(-c4ccccc4)c3=O)[C@@H]1N2CC1CC1	none (no result: MC4R ag barr, MC4R antag cAMP, ARFGAP1 inh, CendR NRP1 mod, ASAP1 GAP inh)
Cc1ccc(C[n+]2c(-c3ccc(C)cc3)cc(-c3ccc(C)cc3)cc2-c2ccc(C)cc2)cc1	MC4R ag barr 55.7 (no result: ARFGAP1 inh, ASAP1 GAP inh)
O=C1C2CCN(CC2)C1Cc1ccccc1O (stereo unspecified)	none (no result: MC4R ag barr, MC4R antag cAMP, CendR NRP1 mod, UUG fidelity)
O=C1C2CCN(CC2)C1Cc1ccc(OCCOc2ccccc2)cc1 (stereo unspecified)	CendR NRP1 mod 28.4

Screening results as filed in PubChem.
